## Antibody variant affinities, Ab-95 light chain, assay 2

Target peptide (SARS-CoV-2 spike, HR2 region): PDVDLGDISGINAS

The variants keep the heavy chain, the linker and the frameworks of Ab-95 (scFv order VH, three GGGGS repeats, VL).
VH: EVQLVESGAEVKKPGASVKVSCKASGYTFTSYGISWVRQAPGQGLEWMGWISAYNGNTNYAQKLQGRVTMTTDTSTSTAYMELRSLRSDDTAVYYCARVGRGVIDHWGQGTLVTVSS
VL: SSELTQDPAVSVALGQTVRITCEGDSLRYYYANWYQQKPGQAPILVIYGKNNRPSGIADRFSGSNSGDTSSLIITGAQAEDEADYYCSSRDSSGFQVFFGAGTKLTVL

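The starting antibody came from a phage panning campaign against this peptide. Library AAYL52 holds single substitutions and randomly drawn double and triple substitutions in the CDRs. The assay is AlphaSeq: two haploid yeast populations carry antibody and antigen on their surface. After mating in shaken culture at 30 °C for 16 h, diploids were selected and their barcode pairs sequenced. Each replicate has its own calibration line, from reference interactions of the BCL2 family. Each pool was mated in three replicate cultures.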

Substitutions are numbered in sequence along the VL above, starting at 1 (not Kabat). Numbers give log10(Kd / nM), so 0 is 1 nM and 3 is 1 µM. Smaller is tighter. "ND" means that the variant was in the library but no mating with the target was seen in that replicate; the authors take this as a sign of poor binding, and no number exists. Nonspecific signal, from three strains lacking the peptide, appeared in 28% of pairings of library AAYL52, centred on 3.91 (5% of these signals below 2.90); values are not corrected for it. Also given: how often the same scFv was detected with the empty control strains.

Variant L27T/R28F/S55K showed ND, ND, ND (controls 1 of 9).
Variant S55E/S88V/F95P showed ND, ND, ND (controls 2 of 9).
Variant R53P/S92R showed ND, 3.76, 3.00 (controls 6 of 9).
Variant N52L/S89F/S92W showed 2.91, 2.94, 3.23 (controls 4 of 9).
Variant R28P/S88R/S92Y showed 3.74, 3.22, ND (controls 2 of 9).
Variant L27K/N51F/S55Y showed 4.41, ND, 2.56 (controls 3 of 9).
Variant D25Y/L27R/S89R showed 3.63, ND, ND (controls 1 of 9).
Variant Y29V/G49E/S88M showed 3.06, 2.58, ND (controls 0 of 9).
Variant F95K/Q96R/F98R showed 3.02, 2.65, 1.67 (controls 1 of 9).
Variant Y31R/P54Q showed 2.73, 2.47, 2.73 (controls 5 of 9).
Variant R28Q/A32Q/N51T showed 3.41, ND, ND (controls 0 of 9).
Variant D25K/S93T/G94P showed ND, 3.56, 4.19 (controls 5 of 9).
Variant G24E/S93I showed 3.79, ND, 3.76 (controls 3 of 9).
Variant G24A/N51C/Q96C showed ND, ND, ND (controls 1 of 9).
Variant K50R/S89M/Q96D showed 4.32, 3.68, 2.77 (controls 3 of 9).
Variant D25K showed 1.96, 2.10, 1.46 (controls 1 of 9).
Variant G49H/K50Q showed 3.04, 3.23, ND (controls 0 of 9).
Variant E23F/V97H/F98W showed 2.60, 3.38, 2.65 (controls 1 of 9).
Variant S88G/S89M/V97D showed 3.61, 2.60, ND (controls 5 of 9).
Variant R28A/F95N showed 2.60, 2.68, 2.35 (controls 5 of 9).
Variant E23D/Y29D/D91F showed 2.13, 2.07, 2.52 (controls 4 of 9).
Variant A32K/K50F/N52R showed 3.42, 2.53, 3.58 (controls 3 of 9).
Variant R28A/Y31K/S55E showed 1.77, 1.49, 1.44 (controls 3 of 9).
Variant D25A/A32W/N33I showed ND, ND, 3.91 (controls 1 of 9).
Variant R28H/Y29T/N51L showed ND, ND, 4.19 (controls 2 of 9).
Variant R53L/P54T/G94V showed 2.97, 3.64, 2.65 (controls 2 of 9).
Variant D25M/R28F/N33V showed ND, ND, ND (controls 0 of 9).
Variant Y29L/N33M/S55I showed 4.04, ND, ND (controls 3 of 9).
Variant A32I/P54M/S93P showed 3.67, ND, ND (controls 6 of 9).
Variant E23A/L27V/N52D showed 4.00, 2.92, 2.48 (controls 1 of 9).
Variant R28A/Y30C/D91N showed 3.45, 3.58, 3.41 (controls 5 of 9).
Variant Y30F/Y31T/S55R showed ND, ND, ND (controls 0 of 9).
Variant A32W/P54M/S92R showed 3.13, ND, 3.62 (controls 2 of 9).

Again, the first 5 entries without any signal:

{"changes": "L27T/R28F/S55K", "log10 Kd (nM) by replicate": "ND, ND, ND", "control signals": "1/9"}
{"changes": "S55E/S88V/F95P", "log10 Kd (nM) by replicate": "ND, ND, ND", "control signals": "2/9"}
{"changes": "G24A/N51C/Q96C", "log10 Kd (nM) by replicate": "ND, ND, ND", "control signals": "1/9"}
{"changes": "D25M/R28F/N33V", "log10 Kd (nM) by replicate": "ND, ND, ND", "control signals": "0/9"}
{"changes": "Y30F/Y31T/S55R", "log10 Kd (nM) by replicate": "ND, ND, ND", "control signals": "0/9"}

Source: Engelhart et al. 2022 (doi:10.1038/s41597-022-01779-4), MIT Lincoln Laboratory and A-Alpha Bio; data file from the FLAb repository.